Experimental data reported in ChEMBL document CHEMBL1121641, “Synthesis and anticonvulsant activity of N-(benzoylalkyl)imidazoles and N-(omega-phenyl-omega-hydroxyalkyl)imidazoles” (J Med Chem, 1981).

Columns and labels:
[1] = Lethal dose in mice determined after intraperitoneal administration.; assay type: toxicity, organism-based; conditions: mouse, in vivo, ip
Procedure, shortened: (§1)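 Mice dosed ip or po with aqueous solution or suspension in 10% aqueous acacia gum, 10 animals per dose. Mortality recorded over 7 days, with behavioural symptoms observed by the Irwin scheme. LD50 derived from dose–mortality data.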

[2] = Lethal dose determined in mice after oral administration; assay type: toxicity, organism-based; conditions: mouse, in vivo; procedure, shortened: as §1

Cl.O=C1NC(=O)C(c2ccccc2)(c2ccccc2)N1 [PHENYTOIN CHLORIDE]
LD50 [1]: 194 mg/kg
LD50 [2]: 284 mg/kg
